These are literature values, as cited in patent US20190022259A1, “Use of 99mTc-tilmanocept and related molecular constructs for identifying and diagnosing malignant tumors and for monitoring therapeutic anti-tumor interventions” (Navidea Biopharmaceuticals, Inc., priority 2017, published 2019).

Chains of the proteins cited; added tags and fusions are not shown. Residues count along the entry.
UniProt P22897, 19-1456, species assumed: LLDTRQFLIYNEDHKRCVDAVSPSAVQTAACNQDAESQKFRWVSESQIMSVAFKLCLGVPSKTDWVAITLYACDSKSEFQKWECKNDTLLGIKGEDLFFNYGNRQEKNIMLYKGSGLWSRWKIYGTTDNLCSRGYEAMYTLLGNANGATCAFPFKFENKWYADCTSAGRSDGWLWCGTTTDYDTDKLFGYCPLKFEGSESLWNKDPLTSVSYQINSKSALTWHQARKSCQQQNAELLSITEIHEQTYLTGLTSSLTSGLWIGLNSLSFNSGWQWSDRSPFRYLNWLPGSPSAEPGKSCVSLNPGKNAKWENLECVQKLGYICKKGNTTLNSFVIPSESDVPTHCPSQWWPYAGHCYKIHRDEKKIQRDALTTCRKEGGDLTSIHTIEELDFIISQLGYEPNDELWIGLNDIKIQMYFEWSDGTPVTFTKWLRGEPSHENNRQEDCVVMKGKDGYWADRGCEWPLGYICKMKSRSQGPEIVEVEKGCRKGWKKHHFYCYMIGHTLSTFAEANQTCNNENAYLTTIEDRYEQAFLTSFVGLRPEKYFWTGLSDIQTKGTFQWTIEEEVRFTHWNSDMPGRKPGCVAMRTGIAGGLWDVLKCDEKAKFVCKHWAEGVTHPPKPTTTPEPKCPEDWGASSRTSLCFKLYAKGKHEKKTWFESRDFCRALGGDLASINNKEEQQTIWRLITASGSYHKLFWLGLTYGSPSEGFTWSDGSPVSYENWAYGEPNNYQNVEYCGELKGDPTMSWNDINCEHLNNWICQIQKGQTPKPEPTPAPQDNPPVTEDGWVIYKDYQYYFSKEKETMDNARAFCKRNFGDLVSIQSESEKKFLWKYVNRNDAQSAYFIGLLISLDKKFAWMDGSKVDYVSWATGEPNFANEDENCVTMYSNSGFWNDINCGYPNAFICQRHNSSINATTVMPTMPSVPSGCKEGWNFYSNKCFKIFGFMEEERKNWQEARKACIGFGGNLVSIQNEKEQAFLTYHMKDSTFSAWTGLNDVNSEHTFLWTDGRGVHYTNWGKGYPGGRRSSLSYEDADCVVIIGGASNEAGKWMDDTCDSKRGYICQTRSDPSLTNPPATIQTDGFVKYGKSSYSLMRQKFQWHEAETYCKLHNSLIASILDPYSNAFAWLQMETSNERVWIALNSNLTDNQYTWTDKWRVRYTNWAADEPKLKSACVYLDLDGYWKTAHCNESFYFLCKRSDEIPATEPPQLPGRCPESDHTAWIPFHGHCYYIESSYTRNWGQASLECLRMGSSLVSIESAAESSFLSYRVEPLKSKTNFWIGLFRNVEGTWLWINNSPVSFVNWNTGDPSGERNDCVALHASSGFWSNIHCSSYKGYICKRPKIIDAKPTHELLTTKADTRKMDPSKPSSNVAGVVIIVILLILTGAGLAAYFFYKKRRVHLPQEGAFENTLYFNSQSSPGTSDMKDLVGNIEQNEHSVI

Usually Kd stands for the concentration at which binding is half-saturated.

For this series, the target named is CD206 (Homo sapiens, UniProt P22897). Conditions: tilmanocept and CD206; cited from earlier work.

Turning to “dextran 3-[(2-aminoethyl)thio]propyl 17-carboxy-10,13,16-tris(carboxymethyl)-8-oxo-4-thia-7,10,13,16-tetraazaheptadec-1-yl 3-[[2-[[1-imino-2-(D-mannopyranosylthio)ethyl]amino]ethyl]thio]propyl ether complexes [tilmanocept]”, the Kd is 0.03 nM.
